Source: patent US20100016313A1, “INTESTINAL ALKALINE PHOSPHATASE MODULATORS AND USES THEREOF” (Burnham Institute for Medical Research, priority 2008, published 2010)

Biological target: T1, human IAP (Homo sapiens, UniProt P09923)
T1 construct: made in house; host or cells: COS-1 cells, transient expression from pCMV-Script; conditioned serum-free medium used as enzyme stock
T1 sequence (P09923 20-503 limits assumed): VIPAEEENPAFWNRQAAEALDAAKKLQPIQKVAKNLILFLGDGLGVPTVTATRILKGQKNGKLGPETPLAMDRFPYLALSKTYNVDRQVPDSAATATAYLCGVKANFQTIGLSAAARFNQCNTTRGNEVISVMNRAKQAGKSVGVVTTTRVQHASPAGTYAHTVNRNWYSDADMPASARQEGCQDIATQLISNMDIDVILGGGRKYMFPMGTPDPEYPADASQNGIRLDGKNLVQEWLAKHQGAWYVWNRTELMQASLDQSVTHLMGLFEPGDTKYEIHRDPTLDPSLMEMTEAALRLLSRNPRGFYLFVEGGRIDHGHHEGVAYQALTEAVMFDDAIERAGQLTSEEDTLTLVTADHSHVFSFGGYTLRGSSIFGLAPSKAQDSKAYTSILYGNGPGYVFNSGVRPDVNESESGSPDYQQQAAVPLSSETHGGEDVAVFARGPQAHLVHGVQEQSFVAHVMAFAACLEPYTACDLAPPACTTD
Assay: IAP assay using CDP-Star (chemiluminescent, dose response)
Type: biochemical
Source text: An expression vector pCMV-Script containing cDNA for human IAP, TNAP, PLAP, GCAP, mouse TNAP, dIAP, EAP or gIAP in secreted form (FLAG-tagged) is transfected into COS-1 cells for transient expression using a standard electroporation method. The GPI anchoring site is replaced by a FLAG sequence to make the proteins secreted into the media as well as to test their kinetics in a form immobilized by anti-FLAG antibody (Narisawa, et al, 2007). Medium is changed to serum free medium Opti-MEM (Invitrogen) 24 h later, and media containing secreted proteins was collected 66 hr after electroporation. Conditioned medium filtered by a 2 μm cellulose acetate membrane is supplemented with 0.1% BSA, aliquotted and stored at −80° C. […]
Compound aliquots (4 μL at […] in 10% DMSO) are added to 8 μL of human IAP working solution of a the human IAP stock solution diluted 1:80 in assay buffer (250 mM DEA, pH 9.8, −2.5 mM MgCl2, −0.05 μM ZnCl2). […] The CDP-Star system is chosen for the primary screening rather than the classic calorimetric assay using pNPP as a substrate, since the chemiluminescent reaction with CDP-Star has higher sensitivity and is not affected by the endogenous absorbance of some compounds in the library and/or of tissue extracts. The final concentration of CDP-Star (442.5 μM) is equal to its Km value determined in assay buffer. […]

IC50: 4.75 µM
Structure (SMILES): O=C1C2C3C=CC(C3)C2C(=O)N1c1n[nH]c(CCc2ccccc2)n1 (stereo not shown) [Compound F10]
